Test results taken from PubChem BioAssay AID720648 (The Scripps Research Institute Molecular Screening Center, 2013).
Only a part is listed here, and it is no random draw. Activity calls are given as the source filed them.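 How the source made its calls: active means inhibition above the mean of compounds lying between control limits plus 3 SD, set per campaign (cut at about 8.5% in these data); inactive means the rest.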

Sequences of proteins named here, by UniProt entry; tags and fusion partners are left off. Residues count along the entry.
UniProt P78536, 215-824 limits assumed: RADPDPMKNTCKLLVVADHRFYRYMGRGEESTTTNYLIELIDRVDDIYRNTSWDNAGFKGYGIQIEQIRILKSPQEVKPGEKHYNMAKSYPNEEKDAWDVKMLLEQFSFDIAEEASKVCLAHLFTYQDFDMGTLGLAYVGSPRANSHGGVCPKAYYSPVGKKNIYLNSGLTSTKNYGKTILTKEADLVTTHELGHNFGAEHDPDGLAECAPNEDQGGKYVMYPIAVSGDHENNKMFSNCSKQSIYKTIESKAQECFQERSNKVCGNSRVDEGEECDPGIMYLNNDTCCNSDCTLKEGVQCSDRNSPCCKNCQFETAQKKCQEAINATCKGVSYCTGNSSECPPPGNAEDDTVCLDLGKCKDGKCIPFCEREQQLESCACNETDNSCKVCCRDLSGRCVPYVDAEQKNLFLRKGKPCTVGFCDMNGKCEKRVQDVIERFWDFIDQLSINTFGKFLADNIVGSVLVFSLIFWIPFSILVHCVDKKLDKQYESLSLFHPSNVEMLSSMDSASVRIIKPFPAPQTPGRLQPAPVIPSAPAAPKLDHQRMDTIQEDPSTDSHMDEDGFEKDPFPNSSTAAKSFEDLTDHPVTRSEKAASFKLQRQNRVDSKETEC

What follows are molecules tested against Disintegrin and metalloproteinase domain-containing protein 17 (Homo sapiens) (UniProt P78536) (assay: ADAM17 inhibitors, primary screen, biochemical, QFRET (AID 720648;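 further: 0% = DMSO-only wells as the low control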)). Conditions: recombinant ADAM17, EDANS/DABCYL FRET peptide cleavage; at 6.95 µM; hits give high values.

SMILES | inhibition
CCC(=O)N(c1ccccc1)C1(COC)CCN(CCn2nnn(CC)c2=O)CC1 | inactive: 1.21%
CCC(=O)N(c1ccccc1)C1(COC)CCN(CCc2cccs2)CC1 | inactive: -0.49%
